The values that follow come from ChEMBL document CHEMBL3734654, “Mutational mapping of the transmembrane binding site of the G-protein coupled receptor TGR5 and binding mode prediction of TGR5 agonists” (Eur J Med Chem, 2015).

In this assay the test system is T1, G-protein coupled bile acid receptor 1 (Homo sapiens), Q8TDU6 [E169A].
T1 sequence (whole entry): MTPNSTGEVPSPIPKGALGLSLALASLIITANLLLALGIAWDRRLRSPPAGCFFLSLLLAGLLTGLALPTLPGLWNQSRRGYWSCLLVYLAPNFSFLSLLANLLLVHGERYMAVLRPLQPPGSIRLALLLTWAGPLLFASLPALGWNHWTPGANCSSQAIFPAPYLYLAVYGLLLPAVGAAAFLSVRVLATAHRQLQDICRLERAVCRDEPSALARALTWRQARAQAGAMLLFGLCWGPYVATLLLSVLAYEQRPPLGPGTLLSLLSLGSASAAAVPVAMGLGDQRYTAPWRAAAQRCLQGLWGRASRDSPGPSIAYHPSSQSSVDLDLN
Nature of the assay: Agonist activity at human TGR5 E169A mutant expressed in HEK293 cells assessed as rise in intracellular cAMP level at 10 uM incubated for 16 hrs by luciferase reporter assay relative to wild type. Format: functional, cell-based.

For `C[C@H](CCC(=O)NCCS(=O)(=O)O)[C@H]1CC[C@H]2[C@@H]3CC[C@@H]4C[C@H](O)CC[C@]4(C)[C@H]3C[C@H](O)[C@]12C`, the Activity amounted to 119%.
